# Reported water solubility values for industrial, environmental and drug-like chemicals

Data: OPERA 2.9 data sets, kmansouri/OPERA on GitHub.

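These are experimental values that the OPERA curators gathered from public databases to train and test their QSAR models. A listed value is a point estimate from one report or more. Conditions of the individual experiments are not part of the data. A value may pool stereoisomers or salt forms, and the file does not say which form was measured. Unmarked limits or estimates from the upstream databases cannot be ruled out.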

Solubility in water is on a log10 molar scale (set defined at 25 °C). Cells with "–" have no entry in this list.

SMILES	name	water solubility (log10 mol/L)
CCOC(=O)/C=C(\NC)C(F)(F)F	Ethyl (2Z)-4,4,4-trifluoro-3-(methylamino)-2-butenoate	-2.948
CC(C(=O)O)c1ccc(N2Cc3ccccc3C2=O)cc1 (stereo not drawn)	Indoprofen	-4.804
Cc1nn(-c2ccccc2)c(=O)[c-]1/N=N/c1cc([N+](=O)[O-])ccc1[O-].Cc1nn(-c2ccccc2)c(=O)[c-]1/N=N/c1cc([N+](=O)[O-])ccc1[O-].[Cr+3].[H+]	–	-2.313
O=C(O)c1cc(Oc2ccc(Cl)cc2Cl)ccc1[N+](=O)[O-]	Benzoic acid, 5-(2,4-dichlorophenoxy)-2-nitro-	-2.52
CCCNC(C)C(=O)Nc1ccccc1C (stereo not drawn)	Prilocaine	-2.83
O=c1ncc2[nH]c(=O)[nH]c2[nH]1	1H-Purine-2,8(3H,7H)-dione	-3.597
CC1C(C=O)CC2CC1C2(C)C (stereo not drawn)	Bicyclo[3.1.1]heptane-3-carboxaldehyde, 2,6,6-trimethyl-	-3.558
CC(CO)COC1CC2CCC1(C)C2(C)C (stereo not drawn)	–	-3.593
O[C@@H](CN(Cc1ccccc1)C[C@H](O)[C@H]1CCc2cc(F)ccc2O1)[C@@H]1CCc2cc(F)ccc2O1 (relative stereo)	–	-6.259
CCCCCC1CCC(=O)O1 (stereo not drawn)	gamma-Nonanolactone	-1.855
C=CCCCCCCCCCOC(=O)C(C#N)=C(c1ccccc1)c1ccccc1	10-Undecen-1-yl-2-cyano-3,3-diphenyl-2-propenoate	-8.663
CNS(=O)(=O)c1cc(OC)c(N=Nc2c(O)c(C(=O)Nc3ccc4[nH]c(=O)[nH]c4c3)cc3ccccc23)cc1OC	C.I. Pigment Violet 32	-7.892
Cc1c(N)cccc1S(=O)(=O)O	3-Amino-2-methylbenzenesulfonic acid	-1.74
O=C(O)c1ccccc1-c1nn(-c2ccccc2)nc1C(=O)O	–	-2.189
OC(Cc1ccccc1Cl)(CN1NCNC1=S)C1(Cl)CC1 (stereo not drawn)	–	-5.124
CCCCCC(=O)OC(=O)CCCCC	Hexanoic anhydride	-4.297
CC(=O)OCCC(C)CCC=C(C)C (stereo not drawn)	Citronellyl acetate	-4.158
O/N=C1\CCCC2=C1C1CCC2C1=C(Cl)Cl (stereo partly drawn)	–	-5.208
O=C(O)c1c(Cl)ccc(Cl)c1O	Benzoic acid, 3,6-dichloro-2-hydroxy-	-0.372
CC(=O)NC(N)=O	Acetamide, N-(aminocarbonyl)-	-0.9
O=[N+]([O-])c1c(OCCO)nn2ccccc12	2-((3-Nitropyrazolo(1,5-a)pyridin-2-yl)oxy)ethanol	-3.272
C[Si]1(C)O[Si](C)(C)O[Si](C)(C)O1	Hexamethylcyclotrisiloxane	-5.143
Cc1c(F)c(N2CCNC(C)C2)cc2c1c(=O)c(C(=O)O)cn2C1CC1 (stereo not drawn)	Grepafloxacin	-2.755
O=C(Nc1cccc2c(=O)c3c(ccc4c5cc(NC(=O)c6ccccc6)c6c(=O)c7ccccc7c(=O)c6c5[nH]c43)c(=O)c12)c1ccccc1	C.I. Vat brown 3	-5.647
CCNC(=O)C1CC(C)CCC1C(C)C (stereo not drawn)	N-Ethyl-2-(isopropyl)-5-methylcyclohexanecarboxamide	-3.055
CCCCCCCCC(C)C#N (stereo not drawn)	Decanenitrile, 2-methyl-	-4.632
C[C@]12CC[C@@H]3c4ccc(O)cc4CC[C@H]3[C@@H]1C[C@@H](O)[C@@H]2O	Estriol	-3.89
Cc1ccc(O)c(/N=N/c2ccccc2[N+](=O)[O-])c1	Phenol, 4-methyl-2-[(2-nitrophenyl)azo]-	-5.748
C=CC(C)(CCC=C(C)C)OC(C)=O (stereo not drawn)	Linalyl acetate	-3.816
CCCCNc1ccc(NCCCC)c2c1C(=O)c1ccccc1C2=O	–	-7.932
CCC(COC(=O)CCCCCCCCCCCCCCC(C)C)(COC(=O)CCCCCCCCCCCCCCC(C)C)COC(=O)CCCCCCCCCCCCCCC(C)C	–	-7.271
O=NN(CCCl)C(=O)NCCC(SCC(=O)O)n1cc(F)c(=O)[nH]c1=O (stereo not drawn)	–	-1.518
CC(C)C1OC2(CCCC2)OCC1(C)C (stereo not drawn)	6,10-Dioxaspiro[4.5]decane, 8,8-dimethyl-7-(1-methylethyl)-	-3.524
CCCCCCCCCCCCCCCCCC(=O)OCC(COCC(COC(=O)CCCCCCCCCCCCCCCCC)(COC(=O)CCCCCCCCCCCCCCCCC)COC(=O)CCCCCCCCCCCCCCCCC)(COC(=O)CCCCCCCCCCCCCCCCC)COC(=O)CCCCCCCCCCCCCCCCC	Dipentaerythritol hexastearate	-10.04
C[C@@H](NCCc1ccc(O)cc1)[C@@H](O)c1ccc(O)cc1	Ritodrine	-3.206
CCc1ccncc1	4-Ethylpyridine	0
CCC1CCC2(CCC(CC)O2)O1 (stereo not drawn)	2,7-Diethyl-1,6-dioxaspiro[4.4]nonane	-1.846
CCCCCCCCCCCC(=O)OC[C@H](O)[C@@H](O)[C@H](O)[C@H](O)CO	D-Glucitol monolaurate	-4.224
CN1CCC(OC(c2ccccc2)c2ccccc2)CC1	Diphenylpyraline	-4.175
O=C(O)c1cccc(C(=O)O)c1C(=O)O	–	-0.837
O=C(c1ccccc1Cl)C1CCCC1	2-Chlorophenyl cyclopentyl ketone	-4.018
O=C(O)c1cn(-c2ccc(F)cc2)c2cc(N3CCNCC3)c(F)cc2c1=O	Sarafloxacin	-3.59
CCCCn1c(O)cc(C)c(C#N)c1=O	–	-2.273
NS(=O)(=O)c1ccc(SCCCO)s1	5-[(3-Hydroxypropyl)sulfanyl]-2-thiophenesulfonamide	-1.426
CC(=O)[C@@H]1C[C@H](C(=O)O)C1(C)C	(1S,3R)-3-acetyl-2,2-dimethylcyclobutane-1-carboxylic acid	-1.085
CCc1cc(CC)c2sc3ccccc3c(=O)c2c1	9H-Thioxanthen-9-one, 2,4-diethyl-	-5.519
CC(C)c1ccc2oc3nc(N)c(C(=O)O)cc3c(=O)c2c1	Amlenanox	-3.31
CCCCC(CC)CNC(=O)c1ccc(N=Nc2c(C)c(C#N)c(=O)n(C)c2O)cc1 (stereo not drawn)	–	-7.025
CCc1c(Br)c(Br)c(Br)c(Br)c1Br	2,3,4,5,6-Pentabromoethylbenzene	-9.24
C=C(C)C(=O)OCCC[Si](O[Si](C)(C)C)(O[Si](C)(C)C)O[Si](C)(C)C	–	-5.585
CC(=O)O[C@H]1C[C@@]2(C)[C@@H](C[C@@H](O)[C@H]3[C@@]4(C)CC[C@@H](O)[C@@H](C)[C@@H]4CC[C@@]32C)/C1=C(\CCC=C(C)C)C(=O)O	Fusidic acid	-4.901
CCCOC(=O)Cn1cc(I)c(=O)c(I)c1	Propyliodone	-3.504
CCCC(=O)C1=C(O)CC(C2CCCSC2)CC1=O (stereo not drawn)	2-Butanoyl-3-hydroxy-5-(thian-3-yl)cyclohex-2-en-1-one	-4.501

Extract of 8 entries:

SMILES	name	water solubility (log10 mol/L)
CCCCC(CC)CNC(=O)c1ccc(N=Nc2c(C)c(C#N)c(=O)n(C)c2O)cc1 (stereo not drawn)	–	-7.025
CCCCNc1ccc(NCCCC)c2c1C(=O)c1ccccc1C2=O	–	-7.932
CC(C)c1ccc2oc3nc(N)c(C(=O)O)cc3c(=O)c2c1	Amlenanox	-3.31
CCCNC(C)C(=O)Nc1ccccc1C (stereo not drawn)	Prilocaine	-2.83
O[C@@H](CN(Cc1ccccc1)C[C@H](O)[C@H]1CCc2cc(F)ccc2O1)[C@@H]1CCc2cc(F)ccc2O1 (relative stereo)	–	-6.259
CCCCCC1CCC(=O)O1 (stereo not drawn)	gamma-Nonanolactone	-1.855
CCCCCCCCCCCC(=O)OC[C@H](O)[C@@H](O)[C@H](O)[C@H](O)CO	D-Glucitol monolaurate	-4.224
CCc1c(Br)c(Br)c(Br)c(Br)c1Br	2,3,4,5,6-Pentabromoethylbenzene	-9.24